One-dose inflammasome screen (PubChem AID 2061109, Seoul National University)
system: mouse macrophages from bone marrow, LPS + nigericin (NLRP3)
compound dose: 5 µM
value: % inhibition of cell death (propidium iodide), 0 = stimulated, 100 = untreated, floor at 0
*: called active, above 70% Part of the library is listed.

CCS(=O)(=O)N1CC(CC#N)(n2cc(-c3ncnc4[nH]ccc34)cn2)C1 → inhibition: 8.4%
COc1cc2c(O[C@@H]3O[C@H](CO)[C@@H]4OC(C)(C)O[C@@H]4[C@H]3O)c3c(c(-c4ccc5c(c4)OCO5)c2cc1OC)C(=O)OC3 → inhibition: 0.0%
CC[C@@H](C)NS(=O)(=O)c1ccc(F)c(C(=O)Nc2ccc(F)c(F)c2)c1 → inhibition: 30.4%
Nc1nnc(Sc2ncc([N+](=O)[O-])s2)s1 → inhibition: 0.0%
COc1cc2ncnc(N3CCN(C(=O)Nc4ccc([N+](=O)[O-])cc4)CC3)c2cc1OC → inhibition: 0.0%
CC(C)COCC(CN(Cc1ccccc1)c1ccccc1)N1CCCC1.Cl → inhibition: 25.8%
CCCCCCOc1cc2c(cc1N(C)c1ncc(C(=O)O)cn1)C(C)(C)CCC2(C)C → inhibition: 54.4%
Cc1cn([C@H]2O[C@@H](CO)[C@H](O)[C@H]2F)c(=O)[nH]c1=O → inhibition: 0.0%
O=C(NCc1cccs1)C1CCCCC1 → inhibition: 0.0%
O=C(O)C(Cc1ccccc1)CN(O)C(=O)Cc1ccccc1 → inhibition: 0.0%
O=c1cc(CO)occ1O → inhibition: 0.0%
COc1c(C)c(C(=O)c2ccc(N)c(C(=O)[O-])c2)n2ccccc12.[Na+] → inhibition: 20.1%
Cc1nnn(C)c1-c1cnc2c3ccc(C(C)(C)O)cc3n([C@H](c3ccccc3)C3CCOCC3)c2c1 → inhibition: 15.7%
CC[C@@H]1/C=C(\C)C[C@H](C)C[C@H](OC)[C@H]2O[C@@](O)(C(=O)C(=O)N3CCCC[C@H]3C(=O)O[C@H](/C(C)=C/[C@@H]3CC[C@@H](O)[C@H](OC)C3)[C@H](C)[C@@H](O)CC1=O)[C@H](C)C[C@@H]2OC → inhibition: 0.0%
O=S(=O)(O)c1cc(O)c2c(S(=O)(=O)O)cc(S(=O)(=O)O)cc2c1 → inhibition: 0.0%
O=C(O)c1sc2cc(Cl)ccc2c1Cl → inhibition: 0.0%
Cl.O=C(c1ccc(-c2ccc(Cl)cc2)o1)N(Cc1ccccn1)c1ccc(N2CCNCC2)cc1 → inhibition: 75.3*%
O=C(NCc1ccc(Cl)cc1)C1CCN(S(=O)(=O)c2cc(Cl)cc(Cl)c2)CC1 → inhibition: 0.0%
Cn1cc(-c2c[nH]c3ncnc(N4CCOCC4)c23)cn1 → inhibition: 62.4%
C[C@]12N[C@H](Cc3ccccc31)c1ccccc12.O=C(O)/C=C\C(=O)O → inhibition: 37.9%
NNCCc1ccccc1.O=S(=O)(O)O → inhibition: 0.0%
C=C1C(=O)O[C@@H]2[C@H]3C(C)=CC[C@@]34O[C@@]4(C)CC[C@@H]12 → inhibition: 11.4%
C[C@H]1CC[C@]2(NC1)O[C@H]1C[C@H]3[C@@H]4CC[C@H]5C[C@@H](O)CC[C@]5(C)[C@H]4CC[C@]3(C)[C@H]1[C@@H]2C.Cl → inhibition: 86.1*%
C=C(C)C(=O)O[C@H]1[C@@H]2[C@H](C)C(=O)O[C@@H]2C[C@@H](C)[C@@H]2C=CC(=O)[C@]21C → inhibition: 25.7%
C=C(Cc1ccccc1Cl)C(=O)OCC → inhibition: 4.0%
NC(=O)N1CCC(CC(=O)N2CCC([C@H]3c4ncc(Br)cc4CCc4cc(Cl)cc(Br)c43)CC2)CC1 → inhibition: 39.5%
Cn1sc(=O)n(Cc2ccccc2)c1=O → inhibition: 68.2%
CN(C)C(=O)n1nnnc1Cc1ccc(-c2ccccc2)cc1 → inhibition: 25.7%
O=C1NC(=S)NC(=O)C1=Cc1ccc(-c2ccc(Cl)cc2Cl)o1 → inhibition: 27.8%
Cc1noc(-c2ccc(-c3ccc(CC(=O)O)cc3)cc2)c1NC(=O)O[C@H](C)c1ccccc1Cl → inhibition: 64.9%
Cl.NCCCOc1cc2ccccc2cc1C(=O)NCCOc1cc2ccccc2cc1C(=O)Nc1ccc(Cl)cc1O → inhibition: 72.2*%
O=C1NCN(c2ccccc2)C12CCN(S(=O)(=O)c1ccc(Cl)s1)CC2 → inhibition: 37.8%
CO[C@H]1C[C@H](O[C@@H]2/C(C)=C/C[C@@H]3C[C@@H](C[C@]4(CC[C@H](C)[C@@H](C5CCCCC5)O4)O3)OC(=O)[C@@H]3C=C(C)/C(=N\O)[C@H]4OC/C(=C\C=C\[C@@H]2C)[C@]43O)O[C@@H](C)[C@@H]1O → inhibition: 0.0%
Cc1cc(C)n(CCCCCSc2nc(-c3ccccc3)c(-c3ccccc3)[nH]2)n1 → inhibition: 0.0%
CC(C)c1ccc(CC(=O)N[C@H](C)c2ccc(OCC(F)(F)F)cn2)cc1 → inhibition: 0.0%
COc1ncc(-c2nc3c(n2C(C)C)[C@H](c2ccc(Cl)cc2)N(c2cc(Cl)cn(C)c2=O)C3=O)c(OC)n1 → inhibition: 37.7%
NS(=O)(=O)c1cc(C(=O)[O-])c(NCc2ccco2)cc1Cl.[Na+] → inhibition: 66.2%
CCOC(=O)[C@H](CCc1ccccc1)N[C@H]1CS[C@H](c2cccs2)CN(CC(=O)O)C1=O.Cl → inhibition: 34.0%
CN(CC(=O)c1ccccc1)c1cccc(C(=O)Nc2c(Br)cc(C(F)(C(F)(F)F)C(F)(F)F)cc2C(F)(F)F)c1F → inhibition: 20.8%
CS(=O)(=O)Nc1ccc2oc3c(OC(F)F)ccc(C(=O)Nc4c(Cl)cncc4Cl)c3c2c1 → inhibition: 0.5%
CCc1cc2ncc(CN3CCN(c4ccc(C(=O)NC)nc4)CC3)cc2[nH]c1=O → inhibition: 52.3%
C=C(C)C(=O)Nc1cccc(-c2ncnc3[nH]cc(C(=O)OCC)c23)c1 → inhibition: 0.0%
Oc1cccc2nc3ccccc3nc12 → inhibition: 35.2%
CCCCC(=O)OCC(=O)[C@]1(O)Cc2c(O)c3c(c(O)c2[C@@H](OC2CC(NC(=O)C(F)(F)F)C(O)C(C)O2)C1)C(=O)c1c(OC)cccc1C3=O → inhibition: 0.0%
CN(C)CC(=O)Nc1ccc2[nH]c(=O)c3ccccc3c2c1.Cl → inhibition: 0.0%
CC(C)(C)OC(=O)N1CC(Nc2nc3ncccc3c(=O)[nH]2)C1 → inhibition: 46.2%
CC(=O)O.CSCC[C@H](NC(=O)[C@@H]1CCCN1C(=O)[C@@H](N)C(C)C)C(=O)N[C@@H](CC(C)C)C(=O)N[C@@H](CCCCN)C(=O)O → inhibition: 23.5%
CCCCN1CCCC[C@H]1C(=O)Nc1c(C)cccc1C.Cl → inhibition: 0.0%
COc1ccc(CNC(=O)c2cc(-c3cncc(Cl)c3)cnc2-c2ccccn2)nc1OC → inhibition: 24.2%
COc1ccc2cc(OCC3(C(=O)O)CN(C(=O)c4ccc(F)cc4)C3)ccc2c1 → inhibition: 0.0%
CCOc1ccc(Nc2nc(-c3c(C)nc4ccccn34)cs2)cc1 → inhibition: 62.3%
CC1CC(C)CN(CCC(=O)Nc2ccc(Br)cc2)C1.Cl → inhibition: 69.1%
CNc1nc(Nc2ccc(C(=O)N3CCOCC3)cc2OC)nc2[nH]cc(Cl)c12 → inhibition: 0.0%
CC(=O)NCC(=O)N[C@@H](CCC(N)=O)C(=O)N[C@@H](Cc1ccccc1)C(=O)N[C@@H](CCCN=C(N)N)C(=O)c1nc2ccccc2s1 → inhibition: 69.1%
COc1cc(O)c2c(=O)c(OC)c(-c3ccc(OC)c(O)c3)oc2c1 → inhibition: 47.3%
O=C(NN=Cc1ccccc1O)c1ccc(O)c(O)c1 → inhibition: 32.9%
c1ccc(Cn2c(NCc3ccco3)nc3ccccc32)cc1 → inhibition: 67.8%
COc1cc2c3c(n(CCCn4ccnc4)c(=O)c2cc1OC)-c1cc2c(cc1C3=O)OCO2 → inhibition: 0.0%
Cn1c(=O)cc(N2CCC[C@@H](N)C2)n(Cc2ccccc2C#N)c1=O → inhibition: 70.7*%
CCCOc1ccc(Br)cc1-c1cc(-c2ccc(Cl)cc2)[nH]c1-c1ccncc1 → inhibition: 0.0%
Cc1nsc(-c2nnc3n2CCN(C(=O)c2ccc(F)cc2)[C@@H]3C)n1 → inhibition: 2.6%
N=C(N)c1ccc(CNC(=O)[C@@H]2CCN2C(=O)[C@H](NCC(=O)O)C2CCCCC2)cc1 → inhibition: 14.6%

The last 4 compounds once more:

| compound | inhibition (%) |
|---|---|
| Cn1c(=O)cc(N2CCC[C@@H](N)C2)n(Cc2ccccc2C#N)c1=O | 70.7* |
| CCCOc1ccc(Br)cc1-c1cc(-c2ccc(Cl)cc2)[nH]c1-c1ccncc1 | 0.0 |
| Cc1nsc(-c2nnc3n2CCN(C(=O)c2ccc(F)cc2)[C@@H]3C)n1 | 2.6 |
| N=C(N)c1ccc(CNC(=O)[C@@H]2CCN2C(=O)[C@H](NCC(=O)O)C2CCCCC2)cc1 | 14.6 |